# According to PubChem BioAssay (Tox21):
# The chains behind the UniProt entries cited, without tags or fusion partners. Where a name states a change or a piece, a line headed by the entry shows the natural chain unless it says otherwise.
# UniProt P03372, whole entry, looked up: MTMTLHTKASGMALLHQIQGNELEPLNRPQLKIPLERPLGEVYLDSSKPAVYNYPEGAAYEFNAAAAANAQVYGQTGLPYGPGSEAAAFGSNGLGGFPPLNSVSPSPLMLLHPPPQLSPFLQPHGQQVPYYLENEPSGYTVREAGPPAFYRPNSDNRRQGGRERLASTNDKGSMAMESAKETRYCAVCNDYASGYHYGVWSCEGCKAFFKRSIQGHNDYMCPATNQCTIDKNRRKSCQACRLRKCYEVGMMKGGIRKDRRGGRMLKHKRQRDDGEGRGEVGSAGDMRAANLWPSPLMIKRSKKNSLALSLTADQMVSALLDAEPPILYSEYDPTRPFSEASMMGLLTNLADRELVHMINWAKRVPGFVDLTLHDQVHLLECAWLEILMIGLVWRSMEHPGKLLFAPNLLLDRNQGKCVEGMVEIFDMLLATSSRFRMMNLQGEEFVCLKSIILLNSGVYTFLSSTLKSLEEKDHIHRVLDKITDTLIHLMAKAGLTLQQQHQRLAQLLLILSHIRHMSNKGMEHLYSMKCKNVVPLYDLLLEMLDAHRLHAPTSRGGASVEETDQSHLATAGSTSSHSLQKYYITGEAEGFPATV
# UniProt Q92731, whole entry, looked up: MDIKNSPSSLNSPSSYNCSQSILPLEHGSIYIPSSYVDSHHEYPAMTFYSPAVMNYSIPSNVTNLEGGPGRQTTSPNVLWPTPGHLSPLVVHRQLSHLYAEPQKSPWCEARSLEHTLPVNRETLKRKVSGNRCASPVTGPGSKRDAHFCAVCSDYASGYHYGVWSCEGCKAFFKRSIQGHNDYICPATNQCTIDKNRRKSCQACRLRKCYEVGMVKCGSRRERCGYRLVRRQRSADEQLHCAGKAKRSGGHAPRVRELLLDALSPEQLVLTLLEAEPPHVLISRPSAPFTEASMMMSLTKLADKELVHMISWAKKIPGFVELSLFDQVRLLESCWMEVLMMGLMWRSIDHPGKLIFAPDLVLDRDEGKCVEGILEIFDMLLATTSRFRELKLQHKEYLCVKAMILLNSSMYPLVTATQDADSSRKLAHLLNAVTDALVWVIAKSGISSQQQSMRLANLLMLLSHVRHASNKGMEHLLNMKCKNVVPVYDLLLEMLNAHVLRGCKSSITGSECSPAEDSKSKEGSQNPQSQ
# UniProt P10275: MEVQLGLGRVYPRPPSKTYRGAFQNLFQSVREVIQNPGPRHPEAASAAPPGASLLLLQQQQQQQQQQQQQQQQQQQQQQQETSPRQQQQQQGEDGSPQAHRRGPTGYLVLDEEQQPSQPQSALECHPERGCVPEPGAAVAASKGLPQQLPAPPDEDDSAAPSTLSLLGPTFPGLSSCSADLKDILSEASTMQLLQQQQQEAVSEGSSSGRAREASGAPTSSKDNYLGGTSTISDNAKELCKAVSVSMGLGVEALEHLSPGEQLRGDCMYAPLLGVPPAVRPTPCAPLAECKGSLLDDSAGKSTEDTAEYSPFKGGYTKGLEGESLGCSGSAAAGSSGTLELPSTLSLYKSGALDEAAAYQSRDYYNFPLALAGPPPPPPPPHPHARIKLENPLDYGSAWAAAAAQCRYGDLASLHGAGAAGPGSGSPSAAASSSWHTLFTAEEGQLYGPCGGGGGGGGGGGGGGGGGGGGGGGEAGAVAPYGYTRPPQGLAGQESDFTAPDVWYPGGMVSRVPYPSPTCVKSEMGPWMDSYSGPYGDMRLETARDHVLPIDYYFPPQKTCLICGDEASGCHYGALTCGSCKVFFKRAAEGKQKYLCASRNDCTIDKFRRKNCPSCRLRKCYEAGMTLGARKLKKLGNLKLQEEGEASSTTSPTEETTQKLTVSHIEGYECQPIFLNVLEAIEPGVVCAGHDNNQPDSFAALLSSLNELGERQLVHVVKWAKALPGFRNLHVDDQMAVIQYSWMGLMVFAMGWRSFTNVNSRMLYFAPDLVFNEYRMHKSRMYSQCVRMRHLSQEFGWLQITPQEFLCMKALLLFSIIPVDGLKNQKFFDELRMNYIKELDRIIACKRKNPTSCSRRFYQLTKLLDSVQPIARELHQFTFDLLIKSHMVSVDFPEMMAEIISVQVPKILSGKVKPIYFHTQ
# The entries are a selection whose mix differs from that of the whole data set. Results filed as inconclusive are left out. Calls of active or inactive are those of the source. Unless noted, calls come from the whole dose curve; as a rule, active = well fitted curve in the direction sought with a large enough effect in the repeat runs; inconclusive = weak or mixed curves; inactive = no such curve, though single readings can be large; an effect the other way counts as inactive or inconclusive.
# Legend:
# [1] = qHTS RealTime-Glo MT Cell Viability Assay in HEK293 cells - 16 hour (AID 1224872); note: top concentration of the series differs between compounds; nearly all actives have a fitted effect of over 50% in size
# Outline: (§1)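 Cells + reagent dispensed (600 cells/well, HEK293) → 5 h at 37 C/5% CO2 → 23 nL compound in DMSO pinned → 40 h at 37 C → luminescence read at 0, 8, 16, 24, 32, 40 h.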
# [2] = qHTS RealTime-Glo MT Cell Viability Assay in HepG2 cells - 8 hour (AID 1224873); note: nearly all actives have a fitted effect of over 55% in size; note: potency is the fitted concentration of half-maximal effect
# Outline: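 HepG2 cells mixed with RealTime-Glo MT reagents (NanoLuc plus cell-permeant prosubstrate) were seeded at 600 cells/well, incubated 5 h at 37 C/5% CO2, then pinned with compounds in DMSO; nonlytic luminescence tracked viability during 40 h treatment.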
# [3] = qHTS RealTime-Glo MT Cell Viability Assay in HEK293 cells - 40 hour (AID 1224874); conditions: RealTime-Glo luminescence; max response: stronger effect = lower value; note: nearly all actives have a fitted effect of over 50% in size
# Outline: (§2)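 Cells were seeded together with NanoLuc luciferase and a prosubstrate that viable cells reduce to a luciferase substrate. After a 5 h incubation at 37 C/5% CO2, compounds were added and luminescence was measured repeatedly during 40 h of treatment.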
# [4] = A CellTox Green Cytotoxicity Assay to monitor cytotoxicity in HepG2 cells - 16 hour (AID 1224876); note: nearly all actives have a fitted effect of over 45% in size
# Outline: (§3)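 Read-out is fluorescence of a cyanine dye excluded from live cells that stains DNA of dead HepG2 cells, with signal proportional to cytotoxicity. Plates were read at 0, 8, 16, 24, 32 and 40 h after compound addition.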
# [5] = A CellTox Green Cytotoxicity Assay to monitor cytotoxicity in HepG2 cells - 24 hour (AID 1224878); note: nearly all actives have a fitted effect of over 45% in size; note: potency is the fitted concentration of half-maximal effect
# Outline: as §3
# [6] = A CellTox Green Cytotoxicity Assay to monitor cytotoxicity in HepG2 cells - 40 hour (AID 1224879); note: nearly all actives have a fitted effect of over 40% in size; note: potency is the fitted concentration of half-maximal effect
# Outline: as §3
# [7] = qHTS RealTime-Glo MT Cell Viability Assay in HEK293 cells - 0 hour (AID 1224880); conditions: RealTime-Glo luminescence; at 76.8 µM (top of the series) unless noted; note: top concentration of the series differs between compounds; nearly all actives have a fitted effect of over 45% in size
# Outline: as §2
# [8] = qHTS RealTime-Glo MT Cell Viability Assay in HEK293 cells - 24 hour (AID 1224886); note: top concentration of the series differs between compounds; nearly all actives have a fitted effect of over 50% in size
# Outline: as §1
# [9] = qHTS RealTime-Glo MT Cell Viability Assay in HEK293 cells - 8 hour (AID 1224887); note: top concentration of the series differs between compounds; nearly all actives have a fitted effect of over 50% in size
# Outline: as §2
# [10] = qHTS RealTime-Glo MT Cell Viability Assay in HepG2 cells - 0 hour (AID 1224889); conditions: RealTime-Glo luminescence; at 76.8 µM (top of the series) unless noted; note: nearly all actives have a fitted effect of over 50% in size
# Outline: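 Real-time, nonlytic viability: 600 HepG2 cells/well mixed with NanoLuc enzyme plus prosubstrate; 5 h settle, compound (DMSO) added by pintool; luminescence monitored over 40 h at 37 C.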
# [11] = qHTS assay to identify small molecule antagonists of the estrogen receptor alpha (ER-alpha) signaling pathway using the BG1 cell line in the presence of 0.1 nM 17-beta-estradiol - cell viability counter screen (AID 1259241); note: nearly all actives have a fitted effect of over 40% in size
# Outline: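 Cytotoxicity counter-screen: live-cell protease activity measured by fluorescence (30 min reagent step) in the same wells. Cells were VM7Luc4E2 with endogenous ER-alpha and ERE-driven luciferase, treated 22 hr at 37C alongside 0.1 nM 17beta-estradiol final.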
# [12] = qHTS assay to identify small molecule antagonists of the androgen receptor (AR) signaling pathway using the MDA cell line in the presence of 0.5 nM R1881 - cell viability counter screen (AID 1259242); note: nearly all actives have a fitted effect of over 45% in size
# Outline: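 Counter screen for cytotoxicity run in the same wells as the AR antagonist reporter screen: MDA-kb2 cells were treated 16 hr with test compounds and 0.5 nM R1881, then live-cell protease activity was measured by fluorescence.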
# [13] = molecular target: Estrogen receptor (Homo sapiens) (UniProt P03372); assay: qHTS assay to identify small molecule antagonists of the estrogen receptor alpha (ER-alpha) signaling pathway using the BG1 cell line in the presence of 0.1 nM 17-beta-estradiol (AID 1259244); conditions: VM7Luc4E2 (BG1) ERE-luciferase, antagonist mode, 0.1 nM E2, 22 h; at 92.4 µM (top of the series) unless noted; note: nearly all actives have a fitted effect of over 50% in size
# [14] = qHTS assay to identify small molecule HDAC inhibitors (AID 1259364); conditions: HCT-116 HDAC-Glo I/II luminescence, 2 h; at 92.4 µM (top of the series) unless noted
# Outline: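 Luminescence from a cell-permeant luminogenic class I/II HDAC substrate reports endogenous deacetylase activity in intact HCT-116 cells treated with compounds for 2 h.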
# [15] = qHTS assay to identify small molecule HDAC inhibitors - cell viability counter screen (AID 1259365); conditions: HCT-116 viability, CellTiter-Glo ATP luminescence, 2 h; at 92.4 µM (top of the series) unless noted; note: nearly all actives have a fitted effect of over 50% in size
# Outline: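 CellTiter-Glo luminescence (30 min, room temperature) reported viability after a 2 h compound exposure at 37 C. Cells: wild-type HCT-116, 1,500 per well, seeded the night before.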
# [16] = qHTS assay to identify small molecule agonists of the sonic hedgehog signaling (Shh) pathway - cell viability counter screen (AID 1259366); note: nearly all actives have a fitted effect of over 50% in size
# Outline: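 Cytotoxicity counter screen: CellTiter-Fluor reagent added after 23 h compound exposure, then 1 h at 37C and fluorescence read. Cells were 3T3 Gli1-Luc, seeded 2,000 per well and dosed 4 h post-plating.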
# [17] = qHTS assay to identify small molecule agonists of the sonic hedgehog signaling (Shh) pathway (AID 1259368; calls by dose curve;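 note: NIH/3T3-derived 3T3Gli1-Luc cells carrying a stable Gli1-driven firefly luciferase reporter; nearly all actives have a fitted effect of over 15% in size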); conditions: NIH/3T3 Gli1-Luc reporter, luciferase, 24 h, stronger effect = higher value; at 92.4 µM (top of the series) unless noted
# Outline: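 3T3Gli1-Luc (NIH/3T3 clone, stable Gli1-Luc); 4 hr pre-incubation, then cpd in DMSO 24 hr, 37 C/5% CO2; luciferase reagent 30 min RT; luminescence.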
# [18] = qHTS assay to identify small molecule antagonists of the sonic hedgehog signaling (Shh) pathway (AID 1259369; calls by dose curve; note: nearly all actives have a fitted effect of over 45% in size)
# Outline: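 3T3Gli1-Luc, conditioned-medium-stimulated, 24hr cpd, 37C/5% CO2; Gli1-driven firefly Luc luminescence after 30min RT with luciferase reagent. Cells plated 4hr before cpd.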
# [19] = molecular target: Estrogen receptor beta (Homo sapiens) (UniProt Q92731); assay: qHTS assay to identify small molecule agonists of the estrogen receptor beta (ER-beta) signaling pathway (AID 1259377; active = well fitted activation curve with a large enough effect in the signal ratio in the repeat runs, not every such curve was filed as active; the % refers to the signal ratio); conditions: ER-beta-UAS-bla HEK293T, beta-lactamase FRET ratio, 16 h; at 92.4 µM (top of the series) unless noted
# [20] = molecular target: Androgen receptor (Homo sapiens) (UniProt P10275); assay: qHTS assay to identify small molecule antagonists of the androgen receptor (AR) signaling pathway using the MDA cell line in the presence of 0.5 nM R1881 (AID 1259243); note: nearly all actives have a fitted effect of over 50% in size
# % is set by controls: 0 for no effect and ±100 for the full control effect.
structure (smiles),measurement,setting,value
CC(C)CCCCCCCOP(OCCCCCCCC(C)C)Oc1ccccc1,Potency,[1],inactive
same,Potency,[2],inactive
same,max response,[3],inactive: -19.5%
same,Potency,[4],inactive
same,Potency,[5],active: 61.6 µM
same,Potency,[6],active: 61.6 µM
same,"activity change, negative = cytotoxicity",[7],inactive: -4.25%
same,Potency,[8],inactive
same,Potency,[9],inactive
same,"activity change, negative = cytotoxicity",[10],inactive: -3.84%
same,Potency,[11],inactive
same,Potency,[12],inactive
same,"activity change, negative = inhibition",[13],inactive: -10.4%
same,"activity change, negative = inhibition",[14],inactive: 2.29%
same,"activity change, negative = cytotoxicity",[15],inactive: -11%
same,Potency,[16],inactive
same,activity change,[17],inactive: 0.798%
same,Potency,[18],inactive
same,activation,[19],inactive: -2.12%
COP(=S)(Cl)OC,Potency,[1],inactive
same,Potency,[2],inactive
same,max response,[3],inactive: -14.7%
same,Potency,[4],inactive
same,Potency,[5],inactive
same,"activity change, negative = cytotoxicity",[7],inactive: -4.07%
same,Potency,[8],inactive
same,Potency,[9],inactive
same,"activity change, negative = cytotoxicity",[10],inactive: -13.5%
same,Potency,[11],inactive
same,Potency,[12],inactive
same,"activity change, negative = inhibition",[13],inactive: -13.6%
same,"activity change, negative = inhibition",[14],inactive: -0.151%
same,"activity change, negative = cytotoxicity",[15],inactive: -2.93%
same,Potency,[16],inactive
same,activity change,[17],inactive: 1.27%
same,activation,[19],inactive: -0.0232%
CCC(C)(OOC(C)(C)C)OOC(C)(C)C,"activity change, negative = cytotoxicity",[1],inactive: 7.52% [at 15.8 µM]
same,"viability change, negative = cytotoxic",[2],inactive: -14.3% [at 15.8 µM]
same,max response,[3],inactive: 11.2%
same,cytotoxicity increase,[4],inactive: -20.6% [at 15.8 µM]
same,cytotoxicity,[5],inactive: -24% [at 15.8 µM]
same,cytotoxicity increase,[6],inactive: -26% [at 15.8 µM]
same,"activity change, negative = cytotoxicity",[7],inactive: 6.82% [at 15.8 µM]
same,"activity change, negative = cytotoxicity",[8],inactive: 10.6% [at 15.8 µM]
same,"activity change, negative = cytotoxicity",[9],inactive: 2.17% [at 15.8 µM]
same,"activity change, negative = cytotoxicity",[10],inactive: -14.7% [at 15.8 µM]
same,"activity change, negative = cytotoxicity",[11],inactive: 0.715% [at 19 µM]
same,"viability change, negative = cytotoxic",[12],inactive: -1.71% [at 19 µM]
same,"activity change, negative = inhibition",[13],inactive: -0.863% [at 19 µM]
same,"activity change, negative = inhibition",[14],inactive: -0.224% [at 19 µM]
same,"activity change, negative = cytotoxicity",[15],inactive: -0.293% [at 19 µM]
same,"viability change, negative = cytotoxic",[16],inactive: -5.83% [at 19 µM]
same,activity change,[17],inactive: -0.975% [at 18.9 µM]
same,"activity change, negative = inhibition",[18],inactive: 1.25% [at 19 µM]
same,activation,[19],inactive: 0.386% [at 19 µM]
CCCCOP(OCCCC)OCCCC,Potency,[1],inactive
same,Potency,[2],inactive
same,max response,[3],inactive: 0.902%
same,Potency,[4],inactive
same,Potency,[5],inactive
same,Potency,[6],inactive
same,"activity change, negative = cytotoxicity",[7],inactive: 3.64%
same,Potency,[8],inactive
same,Potency,[9],inactive
same,"activity change, negative = cytotoxicity",[10],inactive: 3.47%
same,Potency,[11],inactive
same,Potency,[12],inactive
same,Potency,[20],inactive
same,"activity change, negative = inhibition",[13],inactive: 0.422%
same,"activity change, negative = inhibition",[14],inactive: -2.64%
same,"activity change, negative = cytotoxicity",[15],inactive: -5.63%
same,Potency,[16],inactive
same,activity change,[17],inactive: -1.13%
same,Potency,[18],inactive
same,activation,[19],inactive: -3.12%
Cc1cc([N+](=O)[O-])c(O)c([N+](=O)[O-])c1,Potency,[2],inactive
same,Potency,[4],inactive
same,Potency,[5],inactive
same,Potency,[6],inactive
same,"activity change, negative = cytotoxicity",[7],inactive: -23.1%
same,"activity change, negative = cytotoxicity",[10],inactive: -14.6%
same,Potency,[20],inactive
same,"activity change, negative = inhibition",[14],inactive: -2.24%
same,"activity change, negative = cytotoxicity",[15],inactive: 0.447%
same,activity change,[17],inactive: -0.958%
O=C(Cl)OCCOC(=O)Cl,Potency,[1],inactive
same,Potency,[2],inactive
same,max response,[3],inactive: -20.1%
same,Potency,[4],inactive
same,Potency,[5],inactive
same,Potency,[6],inactive
same,"activity change, negative = cytotoxicity",[7],inactive: -16.4%
same,Potency,[8],inactive
same,Potency,[9],inactive
same,"activity change, negative = cytotoxicity",[10],inactive: -6.39%
same,Potency,[11],inactive
same,Potency,[12],inactive
same,Potency,[20],inactive
same,"activity change, negative = inhibition",[14],inactive: 0.559%
same,"activity change, negative = cytotoxicity",[15],inactive: -1.75%
same,Potency,[16],inactive
same,activity change,[17],inactive: -0.375%
O=[N+]([O-])c1ccc([N+](=O)[O-])cc1,Potency,[1],inactive
same,Potency,[2],active: 43.6 µM
same,max response,[3],inactive: -24.6%
same,Potency,[4],inactive
same,Potency,[5],inactive
same,Potency,[6],inactive
same,"activity change, negative = cytotoxicity",[7],inactive: 3.76%
same,Potency,[8],inactive
same,"activity change, negative = cytotoxicity",[10],inactive: -17.6%
same,"activity change, negative = cytotoxicity",[15],inactive: -7.43%
same,activity change,[17],inactive: 3.78%
